The list shows a part of the results, in another mix than the full data. Active and inactive are the calls of the source. Cut-off read from the data, not from the text of the source: active = activity above about 200%; inactive = the rest.

Chains of the proteins cited; added tags and fusions are not shown.
UniProt P03372, whole entry: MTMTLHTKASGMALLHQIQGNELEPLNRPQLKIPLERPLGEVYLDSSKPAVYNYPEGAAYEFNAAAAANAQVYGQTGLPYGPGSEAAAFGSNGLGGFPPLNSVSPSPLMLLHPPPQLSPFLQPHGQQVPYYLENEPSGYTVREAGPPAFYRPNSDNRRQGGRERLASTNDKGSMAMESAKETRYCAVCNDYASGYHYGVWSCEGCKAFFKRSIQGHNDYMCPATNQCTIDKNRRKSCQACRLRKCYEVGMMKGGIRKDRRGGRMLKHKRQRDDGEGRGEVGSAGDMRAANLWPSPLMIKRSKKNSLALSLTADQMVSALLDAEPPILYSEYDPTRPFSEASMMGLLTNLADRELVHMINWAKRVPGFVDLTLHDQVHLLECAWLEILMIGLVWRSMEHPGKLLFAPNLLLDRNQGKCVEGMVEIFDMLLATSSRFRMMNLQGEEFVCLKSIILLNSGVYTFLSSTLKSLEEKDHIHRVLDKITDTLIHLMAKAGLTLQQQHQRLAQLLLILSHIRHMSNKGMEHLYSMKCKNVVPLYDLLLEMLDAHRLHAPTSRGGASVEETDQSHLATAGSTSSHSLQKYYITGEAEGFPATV

The target in this test is Estrogen receptor (Homo sapiens) (UniProt P03372). In words: ERα coactivator recruitment potentiators – biochemical, TR-FRET, ERα LBD, low estradiol, primary screen (AID 639).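 Note: binding measured in presence of low estradiol as agonist stimulus; 0% = peptide alone without receptor and 100% = receptor with peptide.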 Conditions: TR-FRET ERalpha-LBD/SRC-Cy5 coactivator binding, 2 h; at 25.6 µM; active compounds read high; 100 = basal binding, no effect.
In the case of `CN(C)CCOC(=O)C(O)(c1ccccc1)C1CCCCC1` (configuration not stated), the coactivator binding (% of control) was inactive: 127%.

Regarding `CCOP(C)(=S)SCC(=O)NC(C)(CC)C(=O)O` (configuration not stated), the coactivator binding (% of control) was inactive: 118%.

As for `CP(=O)(Nc1ccc2c(c1)OCCO2)Oc1ccccc1` (configuration not stated), the coactivator binding (% of control) is inactive: 112%.

Regarding `Cc1ccccc1NP(C)(=O)Nc1ccccc1C`, the coactivator binding (% of control) was inactive: 150%.

Take `CP(=O)(Nc1ccccc1F)Oc1ccccc1` (configuration not stated): the coactivator binding (% of control) is inactive: 95.2%.

With `CCN(CC)CCCOC(=O)C(O)(c1ccccc1)C1CCCCC1` (configuration not stated), the coactivator binding (% of control) is inactive: 120%.

In the case of `CP(=O)(Nc1ccccc1)Oc1ccc(F)cc1` (configuration not stated), the coactivator binding (% of control) is inactive: 101%.

As for `COc1ccccc1OP(C)(=O)Nc1ccc(C)c(C)c1` (configuration not stated), the coactivator binding (% of control) was inactive: 105%.

As for `Cc1nc2ccc3ccccc3c2o1.O=[N+]([O-])c1cc([N+](=O)[O-])c(O)c([N+](=O)[O-])c1`, the coactivator binding (% of control) was inactive: 107%.

For `CN(C)CCOC(=O)C(O)(c1ccccc1)C1CCCC1` (configuration not stated), the coactivator binding (% of control) is inactive: 99.3%.

Regarding `COc1ccc(OP(C)(=O)Nc2ccccn2)cc1` (configuration not stated), the coactivator binding (% of control) is inactive: 112%.

In the case of `Cc1c(NP(C)(=O)Oc2ccc(C(C)C)cc2)c(=O)n(-c2ccccc2)n1C` (configuration not stated), the coactivator binding (% of control) was inactive: 98.6%.

On to `CCc1ccc(OP(C)(=O)O)cc1`, for which the coactivator binding (% of control) is inactive: 104%.

Consider `CP(=O)(Nc1ccccn1)Oc1ccccc1` (configuration not stated), for which the coactivator binding (% of control) is inactive: 95.5%.

On to `COc1ccccc1OP(C)(=O)Nc1ccc(C)cc1C` (configuration not stated), for which the coactivator binding (% of control) was inactive: 109%.

With `CP(=O)(Oc1ccccc1)N1CCOC1=O` (configuration not stated), the coactivator binding (% of control) is inactive: 96.6%.

Turning to `COc1ccccc1OP(C)(=O)Nc1c(C)n(C)n(-c2ccccc2)c1=O` (configuration not stated), the coactivator binding (% of control) was inactive: 112%.

Take `CP(=O)(Nc1ccc(Cl)cc1)Oc1ccc(F)cc1` (configuration not stated): the coactivator binding (% of control) was inactive: 73.4%.

In the case of `CC(C)(C)c1ccc(OP(C)(=O)O)cc1`, the coactivator binding (% of control) was inactive: 99%.

Regarding `CP(=O)(OC12CC3CC(CC(C3)C1)C2)OC12CC3CC(CC(C3)C1)C2`, the coactivator binding (% of control) was inactive: 103%.

Consider `CP(=S)(Nn1cnnc1)Oc1ccccc1` (configuration not stated), for which the coactivator binding (% of control) was inactive: 89.2%.

`CP(=O)(NC(=O)Nc1ccccc1)Oc1ccccc1` (configuration not stated): the coactivator binding (% of control) is inactive: 122%.

For `CCOP(C)(=S)SCC(=O)NC(C)C(=O)O` (configuration not stated), the coactivator binding (% of control) is inactive: 106%.

Regarding `CP(=O)(Nc1ccccn1)Oc1ccc(Cl)cc1` (configuration not stated), the coactivator binding (% of control) was inactive: 100%.

Take `COc1ccccc1OP(C)(=O)Nc1ccc(C)cc1` (configuration not stated): the coactivator binding (% of control) was inactive: 125%.

For the compound `Cc1ccc(NP(C)(=O)Oc2ccccc2)c(C)c1` (configuration not stated), the coactivator binding (% of control) is inactive: 95.2%.

Turning to `COc1ccc(OP(C)(=O)Nc2cccc(F)c2)cc1` (configuration not stated), the coactivator binding (% of control) is inactive: 104%.

With `Cc1cc(C)cc(OP(C)(=O)Nc2ccc(C)cc2C)c1` (configuration not stated), the coactivator binding (% of control) is inactive: 95%.

Turning to `Cc1cc(C)cc(OP(C)(=O)Nc2ccccn2)c1` (configuration not stated), the coactivator binding (% of control) is inactive: 106%.

With `Cc1ccc(C)c(NP(C)(=O)Oc2ccccc2)c1` (configuration not stated), the coactivator binding (% of control) is inactive: 94.8%.

Consider `Cc1nc2ccc3ccccc3c2s1.O=[N+]([O-])c1cc([N+](=O)[O-])c(O)c([N+](=O)[O-])c1`, for which the coactivator binding (% of control) was inactive: 97.5%.

With `COc1ccccc1OP(C)(=O)Nc1c(C)cccc1C` (configuration not stated), the coactivator binding (% of control) is inactive: 110%.
